Results on one substance are retold here after patent US8206748B2, “Powdery composition for nasal administration” (Teijin Limited, priority 1996, dated 2012).

The conditions of data set [1]: estimated.
The conditions of data set [2]: cited from earlier work.

Take insulin: the “absorption ratio of the nasal preparation determined from AUC, relative to injection” value in data set [1] is given as “less than 10%”. For the same substance, the “maximum blood concentration of insulin” value in data set [2] (10 units of insulin administered nasally to a rabbit) was “less than 200 μU/ml”. For the same substance, in data set [2] (10 units of insulin, rabbit), the “maximum blood concentration relative to that obtained in injection with same amount of insulin” value is “about 20%”.
